Results on ten molecules are retold here after PubChem BioAssay AID1376 (SRMLSC, 2008).

Chains of the proteins cited; added tags and fusions are not shown.
UniProt P9WMN3, whole entry: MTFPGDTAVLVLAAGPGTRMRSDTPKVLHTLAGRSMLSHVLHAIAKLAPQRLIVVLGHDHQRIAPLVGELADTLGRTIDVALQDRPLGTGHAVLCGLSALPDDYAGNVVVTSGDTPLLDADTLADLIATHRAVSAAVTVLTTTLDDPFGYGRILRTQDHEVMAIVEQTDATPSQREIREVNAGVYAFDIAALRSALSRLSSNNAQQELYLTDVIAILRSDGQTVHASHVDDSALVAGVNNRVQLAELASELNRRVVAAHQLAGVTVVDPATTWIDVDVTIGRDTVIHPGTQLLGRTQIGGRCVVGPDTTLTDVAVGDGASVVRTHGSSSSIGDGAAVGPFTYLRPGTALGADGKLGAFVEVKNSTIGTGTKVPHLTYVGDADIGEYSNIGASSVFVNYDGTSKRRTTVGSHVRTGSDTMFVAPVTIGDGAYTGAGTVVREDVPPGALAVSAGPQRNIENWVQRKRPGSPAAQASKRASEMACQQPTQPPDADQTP

This is a selection; strong and weak results do not stand in their true shares. Entries with a potency or affinity are not part of this list. Some tests of the compounds listed are not included; inactive here does not mean inactive elsewhere. The source made the active and inactive calls. No stated cut-off is given here; in the data, active means inhibition above about 13%; inconclusive means no clear call, values can overlap the other calls; inactive means below that.

The target of this assay is Bifunctional protein GlmU (Mycobacterium tuberculosis (strain ATCC 25618 / H37Rv)) (UniProt P9WMN3). The experiment in a line: inhibition of mycobacterial GlmU enzyme – biochemical, glucosamine-1-phosphate acetyltransferase (AID 1376).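 Further: 0% = complete reaction with vehicle and 100% = reaction without substrate.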 As to conditions: M. tuberculosis GlmU acetyltransferase enzyme assay; stronger effect = higher value;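 tested at 30 µM in the primary screen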.
As usually defined, the inhibition is the relative decrease from the control value, in per cent. For the molecule `COc1cccc(C(=O)NCC2(N3CCCCC3)CCCCC2)c1`, the inhibition was inactive: -1.13%.
Under `O=C(OC1CN2CCC1CC2)C(CO)(c1ccccc1)c1ccccc1` (stereo not given) stands inactive: 7.02%; under `CN(C)c1cccc(C(=O)NCC2(N(C)C)CCCCC2)c1`, inactive: 0.79%; under `O=C(NCC1(N2CCCCC2)CCCCC1)c1cc([N+](=O)[O-])ccc1Cl`, inactive: -4.29%.
As to `CCN(CC)CC(C)C(C)OC(=O)C(O)(c1ccccc1)c1ccccc1` (stereo not given), the inhibition was inactive: 1.21%.
For the molecule `CC(C)N1C(=O)CC2(CCN(CCOC(=O)C(O)(c3ccccc3)c3ccccc3)CC2)C1=O`, the inhibition was inactive: -4.42%.
As for `CN(C)C1CCCC1OC(=O)C(O)(c1ccccc1)c1ccccc1` (stereo not given), the inhibition was inactive: -2.65%.
`Cc1ccccc1C(=O)NCC1(N2CCCCC2)CCCCC1`: the inhibition is inactive: -4.25%.
Under `C=CCN1CCN(CCOC(=O)C(O)(c2ccccc2)c2ccccc2)CC1` stands inactive: 6.17%; under `CCN1CCCC(OC(=O)C2(O)c3ccccc3C=Cc3ccccc32)C1` (stereo not given), inactive: -9.01%.
